Decrease of EGFP signal data for 22 compounds are collected here from PubChem BioAssay AID1984 (Sanford-Burnham Center for Chemical Genomics, 2009).

The chains behind the UniProt entries cited, without tags or fusion partners. Residues count along the entry.
UniProt Q05BA5, 1-1403: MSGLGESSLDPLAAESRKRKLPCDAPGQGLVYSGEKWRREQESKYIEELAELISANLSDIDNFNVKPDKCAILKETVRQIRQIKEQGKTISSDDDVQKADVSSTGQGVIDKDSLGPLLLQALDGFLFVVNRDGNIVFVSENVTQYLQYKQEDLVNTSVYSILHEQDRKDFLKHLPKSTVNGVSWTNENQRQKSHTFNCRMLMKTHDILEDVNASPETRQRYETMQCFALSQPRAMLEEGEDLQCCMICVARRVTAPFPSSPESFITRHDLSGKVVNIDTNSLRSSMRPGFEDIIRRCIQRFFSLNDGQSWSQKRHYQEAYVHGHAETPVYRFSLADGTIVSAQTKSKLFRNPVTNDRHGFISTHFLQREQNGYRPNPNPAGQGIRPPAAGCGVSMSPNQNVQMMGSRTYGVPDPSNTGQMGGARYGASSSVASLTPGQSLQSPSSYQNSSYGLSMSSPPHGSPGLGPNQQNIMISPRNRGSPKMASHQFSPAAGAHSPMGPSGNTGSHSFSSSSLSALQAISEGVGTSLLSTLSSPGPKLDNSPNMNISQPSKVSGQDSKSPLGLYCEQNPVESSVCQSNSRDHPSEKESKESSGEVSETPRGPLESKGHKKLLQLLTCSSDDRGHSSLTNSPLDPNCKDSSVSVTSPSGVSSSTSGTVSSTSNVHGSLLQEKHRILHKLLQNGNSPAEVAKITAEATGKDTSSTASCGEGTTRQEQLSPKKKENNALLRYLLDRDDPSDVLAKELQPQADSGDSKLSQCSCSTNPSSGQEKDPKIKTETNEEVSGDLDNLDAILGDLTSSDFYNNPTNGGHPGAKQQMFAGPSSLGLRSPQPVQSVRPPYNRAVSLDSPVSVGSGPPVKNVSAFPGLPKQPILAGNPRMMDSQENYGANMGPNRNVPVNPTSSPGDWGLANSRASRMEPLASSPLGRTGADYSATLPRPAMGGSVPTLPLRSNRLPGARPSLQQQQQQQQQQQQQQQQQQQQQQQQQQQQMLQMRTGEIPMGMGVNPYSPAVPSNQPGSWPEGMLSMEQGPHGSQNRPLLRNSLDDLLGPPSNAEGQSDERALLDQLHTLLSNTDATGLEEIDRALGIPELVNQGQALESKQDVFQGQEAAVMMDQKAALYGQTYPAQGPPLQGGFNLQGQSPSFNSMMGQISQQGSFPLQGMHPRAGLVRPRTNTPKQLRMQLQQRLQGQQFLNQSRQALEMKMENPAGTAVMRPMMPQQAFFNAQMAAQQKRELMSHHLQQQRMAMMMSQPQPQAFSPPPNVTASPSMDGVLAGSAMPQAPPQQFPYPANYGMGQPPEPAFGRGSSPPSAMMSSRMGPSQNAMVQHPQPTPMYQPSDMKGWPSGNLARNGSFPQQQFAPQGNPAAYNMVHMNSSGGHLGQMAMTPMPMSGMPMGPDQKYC

Molecules are shown by their SMILES. The list shows a part of the results, in another mix than the full data. Calls of active or inactive are those of the source.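 Rule for the calls: active = EGFP signal decrease of at least 30% at 10 µM or well 3 SD below plate mean, unless failing retest; inactive = the rest, including hits failing retest or dose response.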

This experiment addresses p/CIP-EGFP fusion (nuclear receptor coactivator 3, mouse) (UniProt Q05BA5). The experiment is described as follows: compounds lowering mouse p/CIP (NCOA3) protein levels – fluorescence, F442A cells, EGFP fusion, primary screen (AID 1984). The following applies: 16 h, at 10 µM, stronger effect = higher value.
For the compound `COc1ccccc1OP(C)(=O)Nc1ccc(C)cc1` (configuration not stated), the decrease of EGFP signal was inactive: -0.1%.

Consider `Cc1ccc(NP(C)(=O)Oc2ccccc2)c(C)c1` (configuration not stated), for which the decrease of EGFP signal is inactive: -16.7%.

Regarding `CCOC(=O)c1ccc(NP(C)(=O)Oc2ccccc2)cc1` (configuration not stated), the decrease of EGFP signal is inactive: 4.6%.

In the case of `Cc1cc(C)cc(OP(C)(N)=O)c1` (configuration not stated), the decrease of EGFP signal was inactive: -14.9%.

On to `COc1ccccc1OP(C)(=O)Nc1cc(Cl)ccc1C` (configuration not stated), for which the decrease of EGFP signal is inactive: -14.5%.

Consider `COc1ccc(OP(C)(=O)Nc2cccc(F)c2)cc1` (configuration not stated), for which the decrease of EGFP signal is inactive: 1.1%.

As for `O=C(O)c1cccc(Nc2c([N+](=O)[O-])cc([N+](=O)[O-])cc2[N+](=O)[O-])c1`, the decrease of EGFP signal was inactive: -8.2%.

For the compound `CC1=NCCc2c1[nH]c1ccccc21.O=[N+]([O-])c1cc([N+](=O)[O-])c(O)c([N+](=O)[O-])c1`, the decrease of EGFP signal is inactive: -0.4%.

As for `COc1ccccc1OP(C)(=O)Nc1cccc(Br)c1` (configuration not stated), the decrease of EGFP signal is inactive: -9.7%.

For the compound `CCOC(=O)c1ccc(NP(C)(=O)Oc2cc(C)cc(C)c2)cc1` (configuration not stated), the decrease of EGFP signal was inactive: 4.3%.

As to `Cc1cc(C)cc(OP(C)(=O)Nc2ccc(C)cc2C)c1` (configuration not stated), the decrease of EGFP signal is inactive: -8.2%.

As for `Cc1ccc(C)c(NP(C)(=O)Oc2ccccc2)c1` (configuration not stated), the decrease of EGFP signal was inactive: 5.7%.

For `CP(=O)(Nc1cccc(Br)c1)Oc1ccccc1` (configuration not stated), the decrease of EGFP signal is inactive: -5.8%.

`Cc1cc(C)cc(OP(C)(=O)Nc2ccccn2)c1` (configuration not stated): the decrease of EGFP signal is inactive: -1%.

Regarding `O=[N+]([O-])c1cc([N+](=O)[O-])c(-n2nnc3ccccc32)c([N+](=O)[O-])c1`, the decrease of EGFP signal was inactive: -9.5%.

Consider `Cc1nc2ccc3ccccc3c2s1.O=[N+]([O-])c1cc([N+](=O)[O-])c(O)c([N+](=O)[O-])c1`, for which the decrease of EGFP signal is inactive: 1.3%.

For the compound `O=[N+]([O-])c1cc([N+](=O)[O-])c(Nc2nnnn2CCO)c([N+](=O)[O-])c1`, the decrease of EGFP signal was inactive: 0.2%.

`CCOC(=O)C(CC)C1=NC(C)(C)Cc2ccccc21.O=[N+]([O-])c1cc([N+](=O)[O-])c(O)c([N+](=O)[O-])c1` (configuration not stated): the decrease of EGFP signal is inactive: -11.3%.

As for `CN1CCCCC1COC(=O)C1(O)c2ccccc2CCc2ccccc21` (configuration not stated), the decrease of EGFP signal is inactive: -13.4%.

Regarding `COc1ccccc1OP(C)(=O)Nc1c(C)cccc1C` (configuration not stated), the decrease of EGFP signal is inactive: -6.7%.

Turning to `CP(=O)(Nc1ccc(SC(F)(F)F)cc1)Oc1ccccc1` (configuration not stated), the decrease of EGFP signal was inactive: 7.1%.

Take `CCCOc1ccc(NP(C)(=O)Oc2ccc(Cl)cc2)cc1` (configuration not stated): the decrease of EGFP signal was inactive: 7%.
